Test results taken from PubChem BioAssay (NCI).
Some of these compounds have results that are not shown, active ones among them.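 Test compounds were applied to cells in 96-well plates for 48 hours at 5 doses. GI50 is the concentration that inhibits growth by half.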

How the values were obtained:
Assay in all cases: inhibition of tumour cell growth, NCI panel, 48 h; in the data active = GI50 below about 0.43 µM; inactive = the rest
OVCAR-3 ovarian = test system: OVCAR-3 ovarian
MOLT-4 leukemia = test system: MOLT-4 leukemia
UO-31 renal = test system: UO-31 renal
SF-268 CNS = test system: SF-268 CNS
SNB-19 CNS = test system: SNB-19 CNS
CCRF-CEM leukemia = test system: CCRF-CEM leukemia
HCC-2998 colon = test system: HCC-2998 colon
UACC-257 melanoma = test system: UACC-257 melanoma
SN12C renal = test system: SN12C renal
HCT-15 colon = test system: HCT-15 colon
TK-10 renal = test system: TK-10 renal
SNB-75 CNS = test system: SNB-75 CNS
HL-60(TB) leukemia = test system: HL-60(TB) leukemia
T-47D breast = test system: T-47D breast
OVCAR-5 ovarian = test system: OVCAR-5 ovarian
LOX IMVI melanoma = test system: LOX IMVI melanoma
PC-3 prostate = test system: PC-3 prostate
MALME-3M melanoma = test system: MALME-3M melanoma
MDA-MB-435 = test system: MDA-MB-435
KM12 colon = test system: KM12 colon
M14 melanoma = test system: M14 melanoma
SW-620 colon = test system: SW-620 colon
IGROV1 ovarian = test system: IGROV1 ovarian
MCF7 breast = test system: MCF7 breast
NCI-H23 lung = test system: NCI-H23 lung
SF-295 CNS = test system: SF-295 CNS
OVCAR-4 ovarian = test system: OVCAR-4 ovarian
HCT-116 colon = test system: HCT-116 colon
OVCAR-8 ovarian = test system: OVCAR-8 ovarian
A498 renal = test system: A498 renal
ACHN renal = test system: ACHN renal
U251 CNS = test system: U251 CNS
HS 578T breast = test system: HS 578T breast
HT29 colon = test system: HT29 colon
SK-OV-3 ovarian = test system: SK-OV-3 ovarian
RPMI-8226 leukemia = test system: RPMI-8226 leukemia
SK-MEL-28 melanoma = test system: SK-MEL-28 melanoma
HOP-62 NSCLC = test system: HOP-62 NSCLC
SK-MEL-2 melanoma = test system: SK-MEL-2 melanoma
NCI-H460 lung = test system: NCI-H460 lung
SK-MEL-5 melanoma = test system: SK-MEL-5 melanoma
UACC-62 melanoma = test system: UACC-62 melanoma
DU-145 prostate = test system: DU-145 prostate
NCI-H322M lung = test system: NCI-H322M lung
K-562 leukemia = test system: K-562 leukemia
MDA-N = test system: MDA-N
A549 NSCLC = test system: A549 NSCLC
MDA-MB-231 breast = test system: MDA-MB-231 breast
BT-549 breast = test system: BT-549 breast
RXF 393 renal = test system: RXF 393 renal
SR leukemia = test system: SR leukemia
NCI-H226 lung = test system: NCI-H226 lung
NCI-H522 lung = test system: NCI-H522 lung
NCI/ADR-RES ovarian = test system: NCI/ADR-RES ovarian
COLO 205 colon = test system: COLO 205 colon
786-0 renal = test system: 786-0 renal

Measured: GI50

O=C(OCCC1=C2CCN(CC2)C1)C(O)(c1ccccc1)C1CCCC1 (stereo unspecified)
inactive: OVCAR-3 ovarian 94.4 µM | MOLT-4 leukemia 2.72 µM | UO-31 renal 28.6 µM | SF-268 CNS 0.693 µM | SNB-19 CNS 58.7 µM | CCRF-CEM leukemia 3.43 µM | HCC-2998 colon 29.3 µM | UACC-257 melanoma 21.5 µM | SN12C renal 62.3 µM | HCT-15 colon 26.6 µM | TK-10 renal > 100 µM | SNB-75 CNS 27.7 µM | HL-60(TB) leukemia 20 µM | T-47D breast 24 µM | OVCAR-5 ovarian 36.5 µM | LOX IMVI melanoma 29.2 µM | PC-3 prostate 36.1 µM | MALME-3M melanoma 24.7 µM | MDA-MB-435 = 36 µM | KM12 colon 30.8 µM | M14 melanoma 17 µM | SW-620 colon 20.1 µM | IGROV1 ovarian 79.2 µM | MCF7 breast 21.5 µM | NCI-H23 lung 86 µM | SF-295 CNS 21 µM | OVCAR-4 ovarian 50.5 µM | HCT-116 colon 22.1 µM | OVCAR-8 ovarian > 100 µM | A498 renal 32.7 µM | ACHN renal 23.8 µM | U251 CNS 41.6 µM | HS 578T breast 31.6 µM | HT29 colon 28.3 µM | SK-OV-3 ovarian > 100 µM | RPMI-8226 leukemia 21.3 µM | SK-MEL-28 melanoma 23.4 µM | HOP-62 NSCLC 21.5 µM | SK-MEL-2 melanoma 24 µM | NCI-H460 lung 38.2 µM | SK-MEL-5 melanoma 12.5 µM | UACC-62 melanoma 18.1 µM | DU-145 prostate > 100 µM | NCI-H322M lung 76.4 µM | K-562 leukemia 2.6 µM | MDA-N 34.5 µM | A549 NSCLC 24.4 µM | MDA-MB-231 breast 35.7 µM | BT-549 breast 29.1 µM | RXF 393 renal 26.4 µM | SR leukemia 27 µM | NCI-H226 lung 31 µM | NCI-H522 lung 36 µM | NCI/ADR-RES ovarian 46.2 µM | COLO 205 colon 18.2 µM | 786-0 renal 17.8 µM
